Entries after “also recorded” stand apart in the source; their conditions may differ.
How the values were obtained:
MCP-1, IL-6, TNF = experiment: Serum cytokine/chemokine ELISA in MRSA-infected wounded mice; assay type: in vivo, Balb/C mice; details: Day 3 after treatment, compared to positive controls
Source text: (§1) Elisa kits for […] (Cat no. 555260, BD Biosciences, CA, USA), IL-6 (Cat no. 555240, BD Biosciences, CA, USA), and TNF (Cat no. 558534, BD Biosciences, CA, USA) were used to determine cytokine levels. Antibodies against macrophages (Cat no. 550282, BD Biosciences, CA, USA), monocytes (Cat no. 101301, BioLegend, London, UK), and VEGF (Cat no. 550549, BD Biosciences, CA, USA) were used for immunohistochemistry (IHC). Fish scale collagen peptides (FSCPs) were isolated from tilapia (Oreochromis sp.) by the Seafood Technology Division, Fisheries Research Institute, Council of Agriculture, Taiwan.
Each wound was inoculated with 50 μl of broth mix containing 10^6 CFU of the indicated microorganism. The wounds were treated with the antimicrobial peptide according to the invention and collagen at 5 min after inoculation. At 30 min after treatment, wounds were covered with Tegaderm to maintain uniformity and to prevent the loss of the materials as treated. The wounds were examined at Day 3, 7, and 14 after the wounds were created, and the non-contaminated wounds were examined every other day. The wounds were examined to assess the transitions from inflammatory to regenerative and regenerative to resolving phases of the wound healing. At the end of the examination period, the animals were euthanized by CO2 inhalation and the wounds were assessed. For each experiment, four individuals were examined in each group at each time point. Each wound was measured and then removed from the animal, with unwounded skin taken from the contralateral abdomen as a control.

MRSA [1] = experiment: Assessment of wound infection: bacterial load (CFU) and Gram staining of wound tissue; assay type: in vivo, Balb/C mice
Method: Tissue samples were homogenized in PBS. Serially diluted aliquots of homogenate were cultured on Luria-Bertani agar after incubation for 18 h at 37° C., and cfu/g tissue were subsequently calculated. A stable wound infection was defined as 10^6 cfu/g tissue.
(§2) Full-thickness tissue was harvested for microbial and histological analysis. Samples from each experiment were fixed in 4% buffered paraformaldehyde. Tissue samples were stained with hematoxylin/eosin or Giemsa, and immunohistochemistry (IHC) was analyzed by three independent investigators. Images were taken with a BX-51 microscope (Olympus, Japan).
Multidrug-resistant strains of Staphylococcus aureus (MRSA) commonly associated with human wound infections were selected to generate a polymicrobial solution. The initial inoculum was prepared by culturing aerobic bacteria in Tryptic Soy Broth (TSB) overnight at 37° C. Broths were subsequently centrifuged at 1000 rpm for 15 min, and resuspended in TSB with 15% glycerol, or chopped meat extract with 15% glycerol (for aerobic bacteria). […] Prior to wound application, the bacterial stocks were re-mixed. Microbial load was determined by direct plating, followed by freeze-thaw and cfu enumeration, in parallel with inoculations. […] The cfu/g of tissue was calculated as follows: cfu/g=plate count (1/dilution)×10/wt. of homogenized tissue.

[2] = test system: monocytes, macrophages, VEGF; experiment: Histology (H&E, Giemsa) and immunohistochemistry of wound tissue; assay type: in vivo, Balb/C mice
Source text: as §1, §2

MRSA [3] = experiment: MRSA-infected full-thickness skin excision wound in mice: survival, wound closure, angiogenesis; assay type: in vivo, Balb/C mice
Method: Six to eight week old Balb/C male mice were used for the examples. MRSA culture and quantification were carried out, and suspensions were serially diluted and spread onto LB-agar plates in duplicate for 24 hours. After the incubation period, colony forming units (CFU) were counted, averaged, and expressed as CFU/ml. All animal handing procedures were in accordance with National Taiwan Ocean University (NTOU) guidelines. All procedures were approved by the Animal Care and Use Committee of NTOU.
(§3) The mice were housed individually to prevent fighting and further damage to the wounds, and were given ad libitum access to food and water. The mice were maintained under 12 h/12 h light/dark cycle at a room temperature, and adapted to the environment for at least a week before used in the experiments. Each mouse's hair was removed from the back by shaving, and a full-thickness excisional wound (1 cm in diameter) was created on the back of the mice.
Each wound was inoculated with 50 μl of broth mix containing 10^6 CFU of the indicated microorganism. […] At the end of the examination period, the animals were euthanized by CO2 inhalation and the wounds were assessed. […] Each wound was measured and then removed from the animal, with unwounded skin taken from the contralateral abdomen as a control.
(§4) Tracings were taken immediately after injury. For uncontaminated wounds, wound size was determined every second day. […] Wound areas were determined using the Macintosh Adobe Photoshop program and histological examination. The percentage of wound contraction was calculated as follows: % Wound contraction=(A0−At)/A0×100% […]
Multidrug-resistant strains of Staphylococcus aureus (MRSA) commonly associated with human wound infections were selected to generate a polymicrobial solution. […] Microbial load was determined by direct plating, followed by freeze-thaw and cfu enumeration, in parallel with inoculations. […] The cfu/g of tissue was calculated as follows: cfu/g=plate count (1/dilution)×10/wt. of homogenized tissue. […]

[4] = Closure of uncontaminated (aseptic) full-thickness wounds in mice; assay type: in vivo, Balb/C mice
Method: as §3
Each wound was inoculated with 50 μl of broth mix containing 10^6 CFU of the indicated microorganism. The wounds were treated with the antimicrobial peptide according to the invention and collagen at 5 min after inoculation. At 30 min after treatment, wounds were covered with Tegaderm to maintain uniformity and to prevent the loss of the materials as treated. […] At the end of the examination period, the animals were euthanized by CO2 inhalation and the wounds were assessed. […] Each wound was measured and then removed from the animal, with unwounded skin taken from the contralateral abdomen as a control.
as §4

MRSA [5] = assay type: cell-based, Staphylococcus aureus
Method: Minimum inhibitory concentration (MIC) and minimum bactericidal concentration (MBC) antimicrobial assays were performed. For MIC assessment, the antimicrobial peptide, Epi-1, was diluted to final concentrations of […], or 0.78 μg/ml. Twenty microliters of each dilution were mixed in a microtiter plate well with […] of the appropriate bacterial indicator suspension, and 160 μl of Trypticase Soy Broth (TSB) for S. aureus, to a total volume of 200 μl. Three replicates were examined for each S. aureus strain, compound, and concentration. Positive controls contained water instead of compounds, and negative controls contained compounds without bacterial suspensions. Microbial growth was automatically determined by optical density measurement at 600 nm (Bioscreen C, Labsystem, Helsinki, Finland). Microplates were incubated at 25° C. for plant pathogens and at 37° C. for food-borne bacterial strains. Absorbance readings were taken at hourly intervals over a 48 h period. Plates were shaken for 20 seconds before each measurement. The experiment was repeated twice.

Question: For `CC[C@H](C)[C@H](NC(=O)[C@H](CCCCN)NC(=O)[C@@H]1CCCN1C(=O)[C@@H](NC(=O)[C@H](CC(C)C)NC(=O)[C@H](C)NC(=O)[C@H](Cc1ccccc1)NC(=O)[C@H](Cc1ccccc1)NC(=O)CN)[C@@H](C)CC)C(=O)N[C@H](C(=O)N[C@@H](CO)C(=O)N[C@@H](CO)C(=O)N1CCC[C@H]1C(=O)N[C@@H](CC(C)C)C(=O)N[C@@H](Cc1ccccc1)C(=O)N[C@@H](CCCCN)C(=O)N[C@H](C(=O)N[C@@H](CC(C)C)C(=O)N[C@@H](CC(C)C)C(=O)N[C@@H](CO)C(=O)N[C@@H](C)C(=O)N[C@H](C(=O)NCC(=O)N[C@@H](CO)C(=O)N[C@@H](C)C(=O)N[C@@H](CC(C)C)C(=O)N[C@@H](CO)C(=O)N[C@@H](CO)C(=O)N[C@@H](CO)C(=O)NCC(=O)NCC(=O)N[C@@H](CCC(N)=O)C(=O)N[C@@H](CCC(=O)O)C(=O)O)C(C)C)[C@@H](C)O)[C@@H](C)CC` [GE33, Pardaxin], which “induction of IL-6 in serum” value (MCP-1, IL-6, TNF) is on record?
Answer: decreased induction

Question: What about the “induction of MCP-1 in serum” value (MCP-1, IL-6, TNF) of the same molecule?
Answer: decreased induction

Question: And the “induction of TNF in serum” value (MCP-1, IL-6, TNF)?
Answer: decreased induction

Question: What about the “Gram staining of MRSA / Gram-positive microorganisms in wound sections” value (MRSA [1]; Day 3 after inoculation) of the same molecule?
Answer: reduced

Question: And the “colony counts between Days 7 and 17” value (MRSA [1]; MRSA-contaminated wounds)?
Answer: decreased; also recorded: most rapid decrease

Question: What about the “overall epidermal maturation, keratinization and regeneration of the epithelium” value ([2]; histology of wounds) of the same molecule?
Answer: no signs of irregularity

Question: What about the “IHC staining of VEGF” value ([2]; infected wound, Day 3) of the same molecule?
Answer: increased

Question: And the “IHC staining/infiltration of macrophages” value ([2]; infected wound, Day 3)?
Answer: significant increase

Question: What about the “IHC staining/infiltration of monocytes” value ([2]; infected wound, Day 3) of the same molecule?
Answer: significant increase

Question: And the “initial expansion of wound size” value (MRSA [3]; contaminated full thickness wounds)?
Answer: did not exhibit the initial expansion

Question: What about the wound closure time (MRSA [3]; contaminated wounds, GE33 study (FIG. 8B)) of the same molecule?
Answer: accelerated

Question: What about the “wound size by 14 days” value (MRSA [3]; contaminated wounds, P<0.05) of the same molecule?
Answer: smaller than that of the vancomycin-treated group

Question: What about the “wound healing (FIG. 8A)” value [4] of the same molecule?
Answer: promoted the wound healing

Question: What about the “concentration that effectively killed MRSA” value (MRSA [5]; MRSA suspended in 10 mM sodium phosphate buffer, pH 7.2) of the same molecule?
Answer: > 6.25 mg/L

Question: And the “minimal inhibitory concentration (MIC)” value (MRSA [5]; against MRSA)?
Answer: > 6.25 µg/mL

Question: What about the “antibacterial efficacy against MRSA in vitro” value (MRSA [5]; bacterial proliferation by optical density at 600 nm) of the same molecule?
Answer: anti-bacterial activity against MRSA in vitro

— patent publication US9750844B2, “Composition for use in wound healing in burns” (ACADEMIA SINICA, priority 2014, dated 2017)
